Test results reported in paper PMC7239729 (Pharmacology, biochemistry, and behavior, 2020).

The chains behind the UniProt entries cited, without tags or fusion partners.
UniProt P34972, whole entry: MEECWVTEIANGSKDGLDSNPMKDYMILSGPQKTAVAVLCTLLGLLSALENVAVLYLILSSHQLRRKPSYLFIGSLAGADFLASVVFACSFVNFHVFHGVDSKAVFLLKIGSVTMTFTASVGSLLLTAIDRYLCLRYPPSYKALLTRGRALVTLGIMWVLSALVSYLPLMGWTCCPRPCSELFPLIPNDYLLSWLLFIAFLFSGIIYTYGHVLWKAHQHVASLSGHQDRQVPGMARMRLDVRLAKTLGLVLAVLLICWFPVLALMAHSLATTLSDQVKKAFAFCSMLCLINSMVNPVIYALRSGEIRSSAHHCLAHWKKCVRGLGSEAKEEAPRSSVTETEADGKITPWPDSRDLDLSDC

Key:
hCB2 receptor = hCB2 receptor (Homo sapiens, UniProt P34972); assay: agonist-stimulated [35S]GTPγS binding, hCB2 HEK293 membranes; assay type: biochemical
CB1 = settings: ref Gamage et al., 2018; cited from earlier work

Structure (SMILES)	EC50 (hCB2 receptor)	affinity higher than EG-018 (CB1)
CCCCC/C=C\C/C=C\C/C=C\C/C=C\CCCC(=O)NCCO [anandamide]	160 nM	
Cc1c(C(=O)NN2CCCCC2)nn(-c2ccc(Cl)cc2Cl)c1-c1ccc(Cl)cc1 [rimonabant, reference compound]		approximately 20 fold
